Results published in CN101627111A.

Molecular target: recombinant human TNF kept in transmembrane form on K2 (C480A) Sp2/0 cells (human), P01375
Test: cell-based or functional assay

ADCC potency (specific lysis of K2 cells, EuTDA release) against CNTO 148 from mouse myeloma cells: 70 倍
B1: CNTO 148 (golimumab) produced in C1083B YB2/0 cells (antibody, V domains shown)
VH: QVQLVESGGGVVQPGRSLRLSCAASGFIFSSYAMHWVRQAPGNGLEWVAFMSYDGSNKKYADSVKGRFTISRDNSKNTLYLQMNSLRAEDTAVYYCARDRGIAAGGNYYYYGMDVWGQGTTVTVSS
VL: not shown
modifications: here or on the partner: more than 80% of the Fc oligosaccharides not fucosylated
